Tests used:
[1] = biological target: GppNHp-loaded KRAS4b (amino acids 1-169) G12C/C118S protein (Homo sapiens, UniProt P01116, C118S/G12C); assay: Covalent cysteine 12 modification by MALDI-TOF MS, GppNHp-loaded KRAS G12C; format: biochemical; settings: 15 minutes reaction time, compound 95 or later using 1 μM proteins
[2] = biological target: GDP-loaded KRAS4b (amino acids 1-169) G12C/C118S protein (Homo sapiens, UniProt P01116, C118S/G12C); assay: Covalent cysteine 12 modification by MALDI-TOF MS, GDP-loaded KRAS G12C; format: biochemical; settings: 15 minutes reaction time, compound 95 or later using 1 μM proteins
[3] = biological target: T1, GTP-loaded KRAS4b (amino acids 1-169) G12C/C118S protein (Homo sapiens, UniProt P01116, C118S/G12C); assay: Covalent cysteine 12 modification by MALDI-TOF MS, GTP-loaded KRAS G12C; format: biochemical; settings: 15 minutes reaction time, compound 95 or later using 1 μM proteins
T1 construct: KRAS4b (amino acids 1-169) G12C/C118S protein; made in house

[4] = biological target: Avi-KRAS G12C (1-169) GppNHp/RAF1 RBD-3xFLAG (52-151) (Homo sapiens, UniProt P01116, G12C); assay: biochemical; settings: Raf1-GppNHp-KRAS G12C disruption, Raf1 RBD-KRAS G12C-GppNHp disruption assay IC50

SMILES	GppNHp-KRAS G12C percent of modification [1]	GDP-KRAS G12C percent of modification [2]	GTP-KRAS G12C percent of modification [3]	IC50 [4] [nM]
C=CC(=O)N1CC[C@@H](N(C)c2nc(OC[C@@]34CCCN3C[C@H](F)C4)nc3c(F)c(-c4ccc(F)c5sc(N)c(C#N)c45)c(C(F)(F)F)cc23)[C@H]1C (single isomer, unassigned) [Compound 434]	A (percent of modification ≥70%)	A (percent of modification ≥70%)	A (percent of modification ≥70%)	–
C=CC(=O)N1CC[C@H](N(C)c2nc(OC[C@@]34CCCN3C[C@H](F)C4)nc3c(F)c(-c4ccc(F)c5sc(N)c(C#N)c45)c(C(F)(F)F)cc23)[C@@H]1C (single isomer, unassigned) [Compound 472]	B (50≤percent of modification <70%)	A (percent of modification ≥70%)	C (10%≤percent of modification <50%)	–
C=CC(=O)N1CC[C@H](N(C)c2nc(OC[C@@]34CCCN3C[C@H](F)C4)nc3c(F)c(-c4ccc(F)c5sc(N)c(C#N)c45)c(C(F)(F)F)cc23)[C@@H]1C (single isomer, unassigned) [Compound 473]	C (10%≤percent of modification <50%)	C (10%≤percent of modification <50%)	D (percent of modification <10%)	–
C=CC(=O)N1CC(N(C)c2nc(OC[C@@]34CCCN3C[C@H](F)C4)nc3c(F)c(-c4ccc(F)c5sc(N)nc45)c(Cl)cc23)C1 [Compound 247]	C (10%≤percent of modification <50%)	A (percent of modification ≥70%)	–	< 500
C=CC(=O)N1CC[C@@H](N(CC)c2ncnc3c(F)c(-c4ccc(F)c5sc(N)nc45)c(C(F)(F)F)cc23)C1 [Compound 248]	D (percent of modification <10%)	A (percent of modification ≥70%)	–	500 to 5000
C=CC(=O)N1CC[C@@H](N(CC)c2nc(OCC34CCCN3CCC4)nc3c(F)c(-c4ccc(F)c5sc(N)nc45)c(C(F)(F)F)cc23)C1 [Compound 249]	A (percent of modification ≥70%)	A (percent of modification ≥70%)	–	< 500
C=CC(=O)N1CCN(c2nc(OCC34CCCN3CCC4)nc3c(F)c(-c4ccc(F)c5sc(N)nc45)c(OC(F)F)cc23)CC1 [Compound 254]	C (10%≤percent of modification <50%)	A (percent of modification ≥70%)	–	< 500
C=CC(=O)N1CC[C@@H](N(CC)c2nc(OC[C@@]34CCCN3C[C@H](F)C4)nc3c(F)c(-c4ccc(F)c5sc(N)nc45)c(C(F)(F)F)cc23)C1 [Compound 257]	A (percent of modification ≥70%)	A (percent of modification ≥70%)	–	< 500
C=CC(=O)N1CC2CC1CN(c1ncnc3c(F)c(-c4ccc(F)c5sc(N)nc45)c(Cl)cc13)C2 (centres unmarked) [Compound 259]	D (percent of modification <10%)	D (percent of modification <10%)	–	> 20000
C=CC(=O)N1CCCN(c2ncnc3c(F)c(-c4ccc(F)c5sc(N)nc45)c(Cl)cc23)CC1 [Compound 260]	D (percent of modification <10%)	A (percent of modification ≥70%)	–	> 20000
C=CC(=O)N1CC[C@@H](N(C)c2nc(OC[C@@H]3CC(C)(C)CN3C)nc3c(F)c(-c4ccc(F)c5sc(N)nc45)c(C(F)(F)F)cc23)C1 [Compound 265]	C (10%≤percent of modification <50%)	A (percent of modification ≥70%)	–	< 500
C=CC(=O)N1C[C@H](C)N(c2nc(OC[C@@]34CCCN3C[C@H](F)C4)nc3c(F)c(-c4ccc(F)c5sc(N)nc45)c(Cl)cc23)C[C@H]1C [Compound 266]	C (10%≤percent of modification <50%)	A (percent of modification ≥70%)	–	< 500
C=CC(=O)N1C[C@H](C)N(c2nc(OC[C@]34CCCN3C[C@H](OC)C4)nc3c(F)c(-c4ccc(F)c5sc(N)nc45)c(C(F)(F)F)cc23)C[C@H]1C [Compound 269]	B (50≤percent of modification <70%)	A (percent of modification ≥70%)	–	< 500
C=CC(=O)N1CC(Nc2nc(OC[C@@]34CCCN3C[C@H](F)C4)nc3c(F)c(-c4ccc(F)c5sc(N)nc45)c(C(F)(F)F)cc23)C1 [Compound 270]	A (percent of modification ≥70%)	A (percent of modification ≥70%)	–	< 500
C=CC(=O)N1CC[C@@H](N(C)c2nc(OC[C@@H]3C[C@@H](F)CN3C3CC3)nc3c(F)c(-c4ccc(F)c5sc(N)nc45)c(C(F)(F)F)cc23)C1 [Compound 273]	D (percent of modification <10%)	C (10%≤percent of modification <50%)	–	500 to 5000
C=CC(=O)N1C[C@H](C)N(c2nc(OCC34CCCN3CCC4)nc3c(F)c(-c4ccc(F)c5sc(N)nc45)c(C(F)(F)F)cc23)C[C@H]1C [Compound 281]	B (50≤percent of modification <70%)	A (percent of modification ≥70%)	–	< 500
C=CC(=O)N1C[C@@H]2C[C@H]1[C@@H]2N(C)c1nc(OC[C@@]23CCCN2C[C@H](F)C3)nc2c(F)c(-c3ccc(F)c4sc(N)nc34)c(C(F)(F)F)cc12 [Compound 282]	D (percent of modification <10%)	B (50≤percent of modification <70%)	–	5000 to 20000
C=CC(=O)N1C[C@@H](N(C)c2nc(OC[C@@]34CCCN3C[C@H](F)C4)nc3c(F)c(-c4ccc(F)c5sc(N)nc45)c(C(F)(F)F)cc23)C(C)(C)C1 [Compound 283]	D (percent of modification <10%)	A (percent of modification ≥70%)	–	500 to 5000
C=CC(=O)N1CCN(c2nc(OCC34CCCN3CCC4)nc3c(F)c(-c4ccc(F)c5sc(N)nc45)c(C(C)(F)F)cc23)CC1 [Compound 284]	D (percent of modification <10%)	D (percent of modification <10%)	–	500 to 5000
C=CC(=O)N1C[C@H](C)N(c2nc(OCC3(CN4CCOCC4)CC3)nc3c(F)c(-c4ccc(F)c5sc(N)nc45)c(C(F)(F)F)cc23)C[C@H]1C [Compound 285]	D (percent of modification <10%)	B (50≤percent of modification <70%)	–	500 to 5000
C=CC(=O)N1C[C@H](C)N(c2nc(OCC3(CN4CC[C@@H](F)C4)CC3)nc3c(F)c(-c4ccc(F)c5sc(N)nc45)c(C(F)(F)F)cc23)C[C@H]1C [Compound 286]	D (percent of modification <10%)	B (50≤percent of modification <70%)	–	< 500
C=CC(=O)N1C[C@H](C)N(c2nc(OC[C@@]34CCCN3C[C@H](F)C4)nc3c(F)c(-c4ccc(F)c5sc(N)nc45)c(C(F)F)cc23)C[C@H]1C [Compound 291]	B (50≤percent of modification <70%)	A (percent of modification ≥70%)	–	< 500
C=CC(=O)N1C[C@H](C)[C@@H](N(C)c2nc(OC[C@@]34CCCN3C[C@H](F)C4)nc3c(F)c(-c4ccc(F)c5sc(N)nc45)c(C(F)(F)F)cc23)C1 [Compound 296]	A (percent of modification ≥70%)	A (percent of modification ≥70%)	–	< 500
C=CC(=O)N1CC[C@@H](N(C)c2nc(OC[C@@]34CCCN3C[C@H](F)C4)nc3c(F)c(-c4ccc(F)c5sc(N)c(C#N)c45)c(C(F)(F)F)cc23)[C@H]1C [Compound 381, 4-(4-(((2R,3R)-1-acryloyl-2-methylpyrrolidin-3-yl)(methyl)amino)-8-fluoro-2-(((2R,7aS)-2-fluorotetrahydro-1H-pyrrolizin-7a(5H)-yl)methoxy)-6-(trifluoromethyl)quinazolin-7-yl)-2-amino-7-fluorobenzo[b]thiophene-3-carbonitrile]	A (percent of modification ≥70%)	–	B (50≤percent of modification <70%)	–
C=CC(=O)N1CC[C@@H](N(C)c2nc(OC[C@@]34CCCN3C[C@H](F)C4)nc3cc(-c4ccc(F)c5sc(N)c(C#N)c45)c(F)cc23)[C@H]1C [Compound 390, 4-(4-((1-acryloyl-2-methylpyrrolidin-3-yl)(methyl)amino)-6-fluoro-2-(((2R,7aS)-2-fluorotetrahydro-1H-pyrrolizin-7a(5H)-yl)methoxy)quinazolin-7-yl)-2-amino-7-fluorobenzo[b]thiophene-3-carbonitrile]	A (percent of modification ≥70%)	A (percent of modification ≥70%)	A (percent of modification ≥70%)	–
C=CC(=O)N1CCC(N(C)c2nc(OC[C@]34CCCN3C[C@H](F)C4)nc3c(F)c(-c4ccc(F)c5sc(N)c(C#N)c45)c(C(F)(F)F)cc23)[C@H]1C (some centres unmarked) [Compound 477]	B (50≤percent of modification <70%)	A (percent of modification ≥70%)	–	< 500
